AlphaSeq binding of Ab-14 heavy chain variants to a spike HR2 peptide

Source: Engelhart et al. 2022 (doi:10.1038/s41597-022-01779-4), MIT Lincoln Laboratory and A-Alpha Bio; data file from the FLAb repository.

All variants were tested on one target, the spike HR2 peptide PDVDLGDISGINAS (SARS-CoV-2).

Parent: Ab-14, a human scFv built as VH, a (GGGGS)3 linker, VL. Only the CDRs of the heavy chain vary.
VH: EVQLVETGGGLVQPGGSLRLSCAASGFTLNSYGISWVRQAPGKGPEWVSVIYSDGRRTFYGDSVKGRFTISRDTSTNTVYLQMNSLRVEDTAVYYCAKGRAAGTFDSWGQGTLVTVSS
VL: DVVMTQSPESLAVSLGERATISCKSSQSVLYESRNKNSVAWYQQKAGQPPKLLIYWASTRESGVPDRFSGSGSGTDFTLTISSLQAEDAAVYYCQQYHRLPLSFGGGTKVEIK

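The parent was found by panning a naive human phage display library on the peptide. The library (AAYL49) carries one to three amino acid substitutions per variant, with no insertions or deletions. The assay is AlphaSeq: two haploid yeast populations carry antibody and antigen on their surface. Mating (16 h, 30 °C) was followed by selection of diploids and sequencing of their barcodes. The ratio of observed to expected reads was calibrated, replicate by replicate, on BCL2-family standards whose Kd was known from biolayer interferometry. Mating was done three times.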

Each variant's VH is given in full.
Values are log10 of the apparent Kd in nM; lower means stronger binding.
The mean shown is taken over the replicates in which the pair was detected.
"nd" means that the variant was in the library but no mating with the target was seen in that replicate; the authors take this as a sign of poor binding, and no number exists.

{"VH": "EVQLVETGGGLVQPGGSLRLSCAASGFTLNSYGISWVRQAPGKGPEWVSVIYSDGRRTFYGDSMKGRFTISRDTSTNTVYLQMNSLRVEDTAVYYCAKGRAHGTFDRWGQGTLVTVSS", "log10 Kd, replicates": "3.36 / 2.63 / 3.24", "mean log10 Kd (nM)": "3.08", "empty controls": "0/9"}
{"VH": "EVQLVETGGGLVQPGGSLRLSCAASGFTRNSYGIKWVRQAPGKGPEWVSVIFSDGRRTFYGDSVKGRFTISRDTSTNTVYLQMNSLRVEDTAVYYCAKGRAAGTFDSWGQGTLVTVSS", "log10 Kd, replicates": "nd / nd / nd", "mean log10 Kd (nM)": "nd", "empty controls": "3/9 (4.30)"}
{"VH": "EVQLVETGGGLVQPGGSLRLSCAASGFTVNSYGISWVRQAPGKGPEWVSDIYSDGRRTFYPDSVKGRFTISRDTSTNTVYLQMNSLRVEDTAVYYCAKGRAAGTFDSWGQGTLVTVSS", "log10 Kd, replicates": "nd / nd / nd", "mean log10 Kd (nM)": "nd", "empty controls": "1/9 (2.78)"}
{"VH": "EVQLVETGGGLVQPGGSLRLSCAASGFTLNSYGISWVRQAPGKGPEWVSVIYVDGRRTFYGDSIKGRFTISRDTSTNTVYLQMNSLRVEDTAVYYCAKGRASGTFDSWGQGTLVTVSS", "log10 Kd, replicates": "nd / nd / nd", "mean log10 Kd (nM)": "nd", "empty controls": "0/9"}
{"VH": "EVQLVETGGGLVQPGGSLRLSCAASGFTLNSYGISWVRQAPGKGPEWVSVIYVDGRRTFYGDVVKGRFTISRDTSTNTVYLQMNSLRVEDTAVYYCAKHRAAGTFDSWGQGTLVTVSS", "log10 Kd, replicates": "4.29 / 5.10 / nd", "mean log10 Kd (nM)": "4.70", "empty controls": "1/9 (3.53)"}
{"VH": "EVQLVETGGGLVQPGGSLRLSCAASGNTLNSYGISWVRQAPGKGPEWVSVIYCDGRRTFYGDFVKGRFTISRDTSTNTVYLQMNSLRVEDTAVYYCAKGRAAGTFDSWGQGTLVTVSS", "log10 Kd, replicates": "nd / nd / nd", "mean log10 Kd (nM)": "nd", "empty controls": "0/9"}
{"VH": "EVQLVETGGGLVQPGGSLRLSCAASGFTLNSYGISWVRQAPGKGPEWVSVIYSDGLRTFYGVSVKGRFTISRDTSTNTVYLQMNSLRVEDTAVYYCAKGRAAGTFPSWGQGTLVTVSS", "log10 Kd, replicates": "nd / nd / nd", "mean log10 Kd (nM)": "nd", "empty controls": "0/9"}
{"VH": "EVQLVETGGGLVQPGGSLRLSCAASGFTLNSYGISWVRQAPGKGPEWVSVIYSDGRRTFYGDSVKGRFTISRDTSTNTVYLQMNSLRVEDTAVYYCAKGRKATTFDDWGQGTLVTVSS", "log10 Kd, replicates": "nd / nd / nd", "mean log10 Kd (nM)": "nd", "empty controls": "0/9"}
{"VH": "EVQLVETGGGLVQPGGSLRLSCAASGFTLNSYGISWVRQAPGKGPEWVSVIYSYGRRTFYTDSVKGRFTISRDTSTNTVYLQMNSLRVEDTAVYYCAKGRAAGTIDSWGQGTLVTVSS", "log10 Kd, replicates": "nd / nd / nd", "mean log10 Kd (nM)": "nd", "empty controls": "0/9"}
{"VH": "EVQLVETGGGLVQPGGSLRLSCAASGFMLNSYIISWVRQAPGKGPEWVSVIYSDGRRTFYGDSVKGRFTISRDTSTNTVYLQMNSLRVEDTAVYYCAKGRAAGTFDMWGQGTLVTVSS", "log10 Kd, replicates": "3.84 / nd / nd", "mean log10 Kd (nM)": "3.84", "empty controls": "2/9 (3.95)"}
{"VH": "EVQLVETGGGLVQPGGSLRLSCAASMFTLNSWGISWVRQAPGKGPEWVSVIYSDGRRTFYGDSVNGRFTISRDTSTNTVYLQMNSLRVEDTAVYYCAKGRAAGTFDSWGQGTLVTVSS", "log10 Kd, replicates": "4.32 / nd / nd", "mean log10 Kd (nM)": "4.32", "empty controls": "2/9 (4.51)"}
{"VH": "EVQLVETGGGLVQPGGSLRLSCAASGFTLNSDGMSWVRQAPGKGPEWVSVIYSDGRRNFYGDSVKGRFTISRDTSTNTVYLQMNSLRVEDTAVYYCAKGRAAGTFDSWGQGTLVTVSS", "log10 Kd, replicates": "nd / nd / nd", "mean log10 Kd (nM)": "nd", "empty controls": "1/9 (1.01)"}
{"VH": "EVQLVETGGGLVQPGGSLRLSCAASGFTLNSAGISWVRQAPGKGPEWVSVIYSDGRPTFYGDSVKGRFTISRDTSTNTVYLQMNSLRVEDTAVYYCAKGRTAGTFDSWGQGTLVTVSS", "log10 Kd, replicates": "5.33 / nd / 5.98", "mean log10 Kd (nM)": "5.66", "empty controls": "3/9 (3.88)"}
{"VH": "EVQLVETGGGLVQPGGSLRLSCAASGFTLNSYGISWVRQAPGKGPEWVSKIYSDGRRTFFGDSPKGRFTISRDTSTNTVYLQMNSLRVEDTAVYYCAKGRAAGTFDSWGQGTLVTVSS", "log10 Kd, replicates": "nd / 2.49 / nd", "mean log10 Kd (nM)": "2.49", "empty controls": "1/9 (2.62)"}
{"VH": "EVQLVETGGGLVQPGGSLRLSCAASGFTLNSYGISWVRQAPGKGPEWVSVIISDGRRTIYGDSVKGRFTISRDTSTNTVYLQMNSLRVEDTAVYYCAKGRHAGTFDSWGQGTLVTVSS", "log10 Kd, replicates": "nd / nd / nd", "mean log10 Kd (nM)": "nd", "empty controls": "2/9 (3.96)"}
{"VH": "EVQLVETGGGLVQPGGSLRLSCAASGFTLQSYGISWVRQAPGKGPEWVSVIYSDGRRTFYYDSVKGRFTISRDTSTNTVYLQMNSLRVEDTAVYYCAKGRAAGTFYSWGQGTLVTVSS", "log10 Kd, replicates": "nd / 4.79 / nd", "mean log10 Kd (nM)": "4.79", "empty controls": "1/9 (3.01)"}
{"VH": "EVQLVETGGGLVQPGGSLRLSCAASGFTLNSYGISWVRQAPGKGPEWVSVIYSDGRRTFYGDYVKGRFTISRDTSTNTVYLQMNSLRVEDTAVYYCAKGRWNGTFDSWGQGTLVTVSS", "log10 Kd, replicates": "nd / nd / nd", "mean log10 Kd (nM)": "nd", "empty controls": "1/9 (4.29)"}
{"VH": "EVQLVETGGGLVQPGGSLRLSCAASGFTYNSWGISWVRQAPGKGPEWVSSIYSDGRRTFYGDSVKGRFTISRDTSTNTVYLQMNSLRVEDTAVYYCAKGRAAGTFDSWGQGTLVTVSS", "log10 Kd, replicates": "nd / 5.21 / 4.93", "mean log10 Kd (nM)": "5.07", "empty controls": "1/9 (3.66)"}
{"VH": "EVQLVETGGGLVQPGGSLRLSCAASGQALNSYGISWVRQAPGKGPEWVSVIYYDGRRTFYGDSVKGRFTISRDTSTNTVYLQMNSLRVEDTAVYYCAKGRAAGTFDSWGQGTLVTVSS", "log10 Kd, replicates": "1.98 / 1.78 / 2.35", "mean log10 Kd (nM)": "2.04", "empty controls": "0/9"}
{"VH": "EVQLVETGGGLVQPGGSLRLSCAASGFTLNSYGISWVRQAPGKGPEWVSVIYSDGRRAFYGDSKKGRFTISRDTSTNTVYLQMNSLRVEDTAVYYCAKGRAIGTFDSWGQGTLVTVSS", "log10 Kd, replicates": "nd / 3.41 / 2.35", "mean log10 Kd (nM)": "2.88", "empty controls": "0/9"}
{"VH": "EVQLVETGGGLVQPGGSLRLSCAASGFTLNSYGISWVRQAPGKGPEWVSVIYSDGRGTPYGDSVKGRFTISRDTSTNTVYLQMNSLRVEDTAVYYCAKGPAAGTFDSWGQGTLVTVSS", "log10 Kd, replicates": "3.42 / nd / nd", "mean log10 Kd (nM)": "3.42", "empty controls": "0/9"}
{"VH": "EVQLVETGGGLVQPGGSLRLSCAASGFVLNSYGISWVRQAPGKGPEWVSVIYSDGRRTFYGDSVKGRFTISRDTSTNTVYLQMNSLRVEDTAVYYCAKGRAALTFDSWGQGTLVTVSS", "log10 Kd, replicates": "-0.14 / 1.03 / 0.52", "mean log10 Kd (nM)": "0.47", "empty controls": "0/9"}

From the list, the first 2 with no signal in any replicate:

{"VH": "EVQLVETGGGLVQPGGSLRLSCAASGFTRNSYGIKWVRQAPGKGPEWVSVIFSDGRRTFYGDSVKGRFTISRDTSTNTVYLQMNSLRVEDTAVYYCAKGRAAGTFDSWGQGTLVTVSS", "log10 Kd, replicates": "nd / nd / nd", "mean log10 Kd (nM)": "nd", "empty controls": "3/9 (4.30)"}
{"VH": "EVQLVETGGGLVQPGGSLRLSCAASGFTVNSYGISWVRQAPGKGPEWVSDIYSDGRRTFYPDSVKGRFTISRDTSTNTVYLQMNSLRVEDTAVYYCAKGRAAGTFDSWGQGTLVTVSS", "log10 Kd, replicates": "nd / nd / nd", "mean log10 Kd (nM)": "nd", "empty controls": "1/9 (2.78)"}

In this assay the parent's reference entry averaged 0.65; its copy inside this library read 4.11 (one replicate of three).
Background: pairings of library AAYL49 with three empty control strains gave a value in 15% of cases (median 4.06, 5th percentile 2.83). Values in that range, when seen in few replicates, are hard to tell from nonspecific mating. For each scFv, signals with the empty controls are counted beside the result, with their mean in brackets.